{
  "source": "paper PMC3541548",
  "about": "(Bioorganic & medicinal chemistry letters, 2012)",
  "test": "in vitro",
  "settings": "human, microsomes",
  "data": [
    {"smiles": "Cc1ccc(S(=O)(=O)N2CCC(C(=O)NC3CCCCCC3)CC2)c(C)c1", "note": "[Compound 2]", "values": [
      {"measurement": "CLint scaled at 1.5 h", "value": 220, "unit": "mL/min/kg"}
    ]}
  ]
}
